Results from patent US20200188479A1, “APPARATUS AND METHODS FOR ADMINISTRATION OF A NAUSEOGENIC COMPOUND FROM A DRUG DELIVERY DEVICE” (INTARCIA THERAPEUTICS, INC., priority 2017, published 2020).

Amino acid sequences for entries named in this document (tags omitted). Residues count along the entry.
UniProt P43220, 24-463: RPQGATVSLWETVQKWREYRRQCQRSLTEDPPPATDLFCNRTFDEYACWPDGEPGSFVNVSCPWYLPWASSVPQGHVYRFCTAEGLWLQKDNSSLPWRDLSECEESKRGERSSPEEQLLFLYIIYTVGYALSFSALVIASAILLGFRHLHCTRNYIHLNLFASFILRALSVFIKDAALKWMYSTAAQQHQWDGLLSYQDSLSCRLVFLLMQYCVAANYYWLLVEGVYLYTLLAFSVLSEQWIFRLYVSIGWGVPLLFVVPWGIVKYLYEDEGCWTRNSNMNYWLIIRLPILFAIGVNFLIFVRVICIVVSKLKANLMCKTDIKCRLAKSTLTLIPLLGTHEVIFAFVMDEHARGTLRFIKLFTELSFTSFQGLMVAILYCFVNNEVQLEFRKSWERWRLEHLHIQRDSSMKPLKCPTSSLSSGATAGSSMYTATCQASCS

Target: T1, human GLP-1 receptors (Homo sapiens, UniProt P43220)
T1 construct: expressed in transfected cells; host or cells: CHO-K1 (transient transfection, Lipofectamine 2000)
Experiment: Albumin binding assessed by potency shift: cAMP activation of GLP-1 receptors expressed in CHO-K1 cells at different HSA concentrations
Type: cell-based
Details: physiologic concentrations (2-4%) HSA versus low (0.1%) HSA
Excerpt: EC50 values were converted to pEC50 values using the formula: pEC50=−Log(EC50).

Substance: GLP-1[7-36]NH2
- change in potency for activation of GLP-1 receptors: no substantial reduction, or a slight increase
